{"sequences": {"note": "By UniProt entry, the sequences of proteins in these tests, tags left out. Where a name states a change or a piece, a line headed by the entry shows the natural chain unless it says otherwise.", "UniProt P49336": "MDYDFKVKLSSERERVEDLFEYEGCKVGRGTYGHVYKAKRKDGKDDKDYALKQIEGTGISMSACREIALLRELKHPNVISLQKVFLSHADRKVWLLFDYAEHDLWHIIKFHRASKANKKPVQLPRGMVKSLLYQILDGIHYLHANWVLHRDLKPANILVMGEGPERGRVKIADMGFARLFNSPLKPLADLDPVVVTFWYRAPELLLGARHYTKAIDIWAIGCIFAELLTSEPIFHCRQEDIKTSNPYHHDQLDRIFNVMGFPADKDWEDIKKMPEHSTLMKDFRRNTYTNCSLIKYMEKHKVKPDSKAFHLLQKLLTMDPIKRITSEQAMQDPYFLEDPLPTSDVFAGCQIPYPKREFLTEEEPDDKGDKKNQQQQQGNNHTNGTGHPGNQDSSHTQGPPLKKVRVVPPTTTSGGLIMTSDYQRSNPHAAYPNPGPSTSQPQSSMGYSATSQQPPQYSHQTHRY"}, "source": "patent US8598344B2", "about": "“CDKI pathway inhibitors and uses thereof” (Senex Biotechnology, priority 2009, dated 2013)", "origin": "cited, not measured here", "key": {"CDK8": {"molecular_target": "T1, CDK8 (Homo sapiens, UniProt P49336)", "T1 construct": "purchased KinomeScan, a division of Ambit Biosciences", "details": "cited from earlier work"}, "[1]": {"system": "human umbilical vein endothelial cells (HUVECs)", "details": "cited from earlier work"}}, "data": [{"substance": "cortistatin A", "values": [{"measurement": "POC, CDK8", "setting": "CDK8; 10 μM, data from Cee et al. (2009)", "value": 0.95, "unit": "POC"}, {"measurement": "Kd", "setting": "CDK8; Cee et al. (2009)", "value": 17, "unit": "nM"}, {"measurement": "fold differential KB-3-1 vs HUVEC", "setting": "[1]; Aoki et al., 2007", "value": "3,900 fold"}, {"measurement": "fold higher for other human cells than for HUVECs", "setting": "[1]", "value": "> 3,000 fold"}]}]}
